Patent US20220031668A1, “METHODS OF INHIBITING PROCOLLAGEN-LYSINE, 2-OXOGLUTARATE 5-DIOXYGENASE 2” (University of Kentucky Research Foundation, priority 2020, published 2022)

Test system: MDA-MB-231 cells
Experiment: 3D culture assay of cancer cell invasion
Format: cell-based, human
Description: 3D culture assay is an established platform to study cancer cell invasion, and the ability of compounds to attenuate such cell invasion (Zhang 2015). […] The MDA-MB-231 cell line is an epithelial, human breast cancer cell line.
Briefly, to conduct the 3D culture assay, 12-well plates were coated with […], matrigel per well. After incubating the plates at 37° C. for 15 minutes, MDA-MB-231 cells were plated with about 300 cells per well. The plates were allowed to stand for 45 min in the 37° C. incubator to let the cells deposit into the matrigel. The cells were then covered with 10% matrigel, which contained test compounds. […]

C[C@@H](O)[C@H]1C(=O)N2C(C(=O)OCOC(=O)C(C)(C)C)=C(SC3CN(C4=NCCS4)C3)[C@H](C)[C@H]12 [Tebipenem pivoxil]
inhibitory activity on breast cancer progression (invasive growth) in 3D culture: inhibitory activity
